Test results taken from US20090186811A1, “Y2 Selective Receptor Agonists for Therapeutic Interventions” (priority 2004, published 2009).
Positions of bridges follow the written chain, without caps; N, C: chain ends. Non-standard residues stand in square brackets, D forms with d. Residues, ends and D or L forms follow the SMILES beside them. Aoc = NCCCCCCCC(=O)O

The chains behind the UniProt entries cited, without tags or fusion partners. Where a name states a change or a piece, a line headed by the entry shows the natural chain unless it says otherwise.
UniProt P49146, whole entry: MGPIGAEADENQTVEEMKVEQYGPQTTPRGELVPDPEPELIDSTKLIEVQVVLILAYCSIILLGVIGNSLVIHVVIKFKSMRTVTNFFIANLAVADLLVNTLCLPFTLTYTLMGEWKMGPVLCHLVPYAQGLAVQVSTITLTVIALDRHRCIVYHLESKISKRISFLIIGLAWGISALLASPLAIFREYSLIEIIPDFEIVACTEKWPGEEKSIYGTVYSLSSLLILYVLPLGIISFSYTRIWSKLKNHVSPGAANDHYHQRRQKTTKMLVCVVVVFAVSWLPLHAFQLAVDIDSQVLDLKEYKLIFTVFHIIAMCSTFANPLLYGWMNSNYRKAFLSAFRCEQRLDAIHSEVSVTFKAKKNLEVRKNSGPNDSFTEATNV
UniProt P25929, whole entry: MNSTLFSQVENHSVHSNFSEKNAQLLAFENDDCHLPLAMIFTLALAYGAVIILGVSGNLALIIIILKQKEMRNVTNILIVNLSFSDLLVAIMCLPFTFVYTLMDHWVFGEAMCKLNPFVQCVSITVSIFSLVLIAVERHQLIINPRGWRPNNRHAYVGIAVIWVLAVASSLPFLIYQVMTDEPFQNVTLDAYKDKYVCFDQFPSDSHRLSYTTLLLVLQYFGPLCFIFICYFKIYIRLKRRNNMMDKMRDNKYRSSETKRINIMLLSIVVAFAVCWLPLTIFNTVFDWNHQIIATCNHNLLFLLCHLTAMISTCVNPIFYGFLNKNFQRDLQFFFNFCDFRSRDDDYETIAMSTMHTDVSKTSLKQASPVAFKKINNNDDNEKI
UniProt P50391: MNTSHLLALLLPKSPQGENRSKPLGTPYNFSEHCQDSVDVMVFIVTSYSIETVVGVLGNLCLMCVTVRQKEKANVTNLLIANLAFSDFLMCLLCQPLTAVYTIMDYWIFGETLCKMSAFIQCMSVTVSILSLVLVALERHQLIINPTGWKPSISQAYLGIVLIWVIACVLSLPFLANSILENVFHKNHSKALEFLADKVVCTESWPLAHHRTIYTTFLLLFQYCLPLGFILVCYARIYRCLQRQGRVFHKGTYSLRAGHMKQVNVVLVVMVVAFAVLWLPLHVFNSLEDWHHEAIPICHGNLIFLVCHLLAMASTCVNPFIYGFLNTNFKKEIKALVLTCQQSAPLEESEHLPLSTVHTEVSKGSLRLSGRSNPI

Legend:
[1] = molecular target: T1, human Y2 receptor (Homo sapiens, UniProt P49146); test: Human Y2 receptor affinity assay (competition binding); conditions: receptor recognition profile
T1 construct: expressed in transfected cells; host or cells: COS-7

[2] = molecular target: T2, human Y1 receptor (Homo sapiens, UniProt P25929); test: Human Y1 receptor affinity assay (competition binding); conditions: receptor recognition profile
T2 construct: expressed in transfected cells; host or cells: COS-7

[3] = molecular target: T1, human Y2 receptor; test: Human Y2 receptor potency assay (inositol phosphate turnover); type: cell-based; conditions: relative to PYY3-36
[4] = molecular target: T2, human Y1 receptor; test: Human Y1 receptor potency assay (inositol phosphate turnover); type: cell-based; conditions: relative to PYY3-36
[5] = Binding to glycosaminoglycans, immobilized heparin (HiTrap heparin-Sepharose); conditions: FIG. 5
[6] = molecular target: T3, human Y4 receptor (Homo sapiens, UniProt P50391); test: Human Y4 receptor affinity assay (competition binding); conditions: receptor recognition profile
T3 construct: expressed in transfected cells; host or cells: COS-7

Compound | affinity for / recognition by the Y2 receptor (in words) [1] | affinity for / recognition by the Y1 receptor (in words) [2] | other results
[D-Ala1]PYY [SEQ ID NO: 6] | high affinity equal to, for example, PYY3-36 | reduced affinity | 
CC[C@H](C)[C@@H]1NC(=O)[C@@H](NC(=O)[C@@H](N)Cc2ccc(O)cc2)CSSC[C@H](C(=O)N[C@@H](CC(C)C)C(=O)N[C@@H](CC(N)=O)C(=O)N[C@@H](CC(C)C)C(=O)N[C@H](C(=O)N[C@H](C(=O)N[C@@H](CCCNC(=N)N)C(=O)N[C@@H](CCC(N)=O)C(=O)N[C@@H](CCCNC(=N)N)C(=O)N[C@@H](Cc2ccc(O)cc2)C(N)=O)[C@@H](C)O)C(C)C)NC(=O)[C@H](Cc2c[nH]cn2)NC(=O)[C@H](CCCNC(=N)N)NC(=O)CCCCCCCNC(=O)[C@H](CCCCN)NC1=O [SEQ ID NO: 16, [Cys2,Aoc5-24,D-Cys27]PYY] (H-YCIK[Aoc]RH[dC]LNLVTRQRY-NH2; disulfide 2-8; N-terminus assumed) |  |  | Y2 EC50 higher than PYY3-36 [3]: approx. 10 fold; selectivity towards the Y1 receptor better than PYY3-36 [4]: at least 10 fold
[D-Ala2]PYY2-36 [SEQ ID NO: 22] | high affinity | low affinity | 
Fluorescein-[Cys2,N-{(Ala-Arg-Arg-Arg-Ala-Ala-Arg-Ala)3}-Lys13,D-Cys27]PYY |  |  | absorption to HiTrap heparin-sepharose [5]: almost totally absorbed
[Lys28,Glu32]PYY25-36 [SEQ ID NO: 19] |  | basically not recognized | affinity for / recognition by the Y4 receptor (in words) [6]: not recognized
PYY2-36 [SEQ ID NO: 4] | high affinity equal to, for example, PYY3-36 | poor affinity | 
